The data set in a line: physchem.

Read-outs that look alike come from different tables or passages of the source.

The term solubility denotes the dissolved amount per volume that the medium holds. Turning to `CN(C)Cc1nccn1-c1ccc(NC(=O)c2cc(C(F)(F)F)nn2-c2ccc3onc(N)c3c2)c(F)c1.Cl` [Factor Xa inhibitor], the solubility came out at 0.1 µg/mL. The compound also returned a solubility (gastric medium (pH ~1-2), simulated gastric fluid) of about 3000 µg/mL.

Source of the values: patent US20050059719A1, “Solid dosage formulation containing a Factor Xa inhibitor and method” (priority 2003, published 2005).
